Reference: patent US20260132128A1, “COMPOUND FOR RECOVERING P53 MUTATION FUNCTION AND USE THEREOF” (SHENZHEN ZHONGGE BIOLOGICAL TECHNOLOGY CO., LTD., priority 2022, published 2026)
Read-outs that look alike come from different tables or passages of the source.

Protein sequences, listed by entry. Tags and fused reporters are not part of them.
UniProt P08684, whole entry: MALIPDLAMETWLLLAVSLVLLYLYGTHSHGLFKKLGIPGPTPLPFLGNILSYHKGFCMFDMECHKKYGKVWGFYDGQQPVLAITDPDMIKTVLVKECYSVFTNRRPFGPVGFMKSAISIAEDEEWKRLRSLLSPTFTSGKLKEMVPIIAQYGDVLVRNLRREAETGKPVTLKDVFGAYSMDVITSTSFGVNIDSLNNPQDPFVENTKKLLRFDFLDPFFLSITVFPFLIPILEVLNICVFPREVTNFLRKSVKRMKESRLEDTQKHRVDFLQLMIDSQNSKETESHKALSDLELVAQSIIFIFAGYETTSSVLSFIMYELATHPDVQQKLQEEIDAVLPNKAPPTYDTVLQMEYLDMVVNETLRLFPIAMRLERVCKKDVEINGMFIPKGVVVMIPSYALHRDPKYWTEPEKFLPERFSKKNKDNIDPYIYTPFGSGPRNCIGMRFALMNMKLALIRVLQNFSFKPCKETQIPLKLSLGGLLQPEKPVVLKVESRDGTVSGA

Tests used:
[1] = target: CYP 3A4 (Homo sapiens, UniProt P08684); test: CYP 3A4 time-dependent inhibition test; details: midazolam substrate
[2] = test system: BxPC-3 cells; test: BxPC-3 cell proliferation test (CTG); details: 6 days
Procedure: To detect the inhibitory effects of the aforementioned compounds on the proliferation ability of BxPC-3 cells, 125 BxPC-3 cells (ATCC®CRL-1687) were seeded into a 384-well plate (Corning 3765), 35 μL per well, and placed in a constant temperature incubator at 37° C. and 5% CO2 overnight. Then, 40 nL of the compound was added to the 384-well plate using an Echo 655 Liquid Handler, with a maximum final concentration of 10 μM, 1:3 serial dilution, and in a total of 10 doses. Incubation was performed at 37° C., 5% CO2 for 6 days. The plate was taken out from the incubator and equilibrated at room temperature for 10 minutes. 20 μL of CTG (Promage G7572) was added to each well of the plate according to the platemap. The plate was centrifuged at 1000 rpm for 1 minute. The lysis of cells was induced by mixing on a shaker for 2 minutes. The plate was centrifuged at 1000 rpm for 1 minute. Incubation was performed at room temperature for 10 minutes to stabilize luminescence signals. Luminescence values were recorded by Envision (PerkinElmer 2105-0020). GraphPad 9.0 was used to fit the inhibition rate and compound concentration into a nonlinear regression curve (dose response-variable slope) to calculate GI50, inhibition rate={1−(A−B)/(C−B)}*100%, A=signal value of compound; B=average signal of blank control; C=average signal of negative control (wherein the negative control was 0.1% DMSO).

[3] = test system: NUGC-3 cells; test: NUGC-3 cell proliferation assay (CTG)
Procedure: In order to detect the inhibitory effect of the aforementioned compounds on the proliferation ability of NUGC-3 cells, 250 NUGC-3 cells (Nanjing Cobioer Biosciences Co., Ltd., CBP60492) were seeded into a 384-well plate (Corning 3765), 35 μL per well, and incubated overnight in a constant temperature incubator at 37° C. and 5% CO2. Then, 40 nL of the compound was added to the 384-well plate using an Echo 655 Liquid Handler, with a maximum final concentration of 10 μM, 1:3 serial dilutions, and a total of 10 doses. The culture was performed at 37° C. and 5% CO2 for 6 days. The plate was taken out from the incubator and equilibrated at room temperature for 10 minutes. 20 μL of CTG (Promage G7572) was added to each well of the plate according to the platemap. The plate was centrifuged at 1000 rpm for 1 min. The lysis of cells was induced by mixing on a shaker for 2 min. The plate was centrifuged at 1000 rpm for 1 min. Incubation was performed at room temperature for 10 min to stabilize luminescence signals. Luminescence values were recorded by Envision (PerkinElmer 2105-0020). GraphPad 9.0 was used to fit the inhibition rate and compound concentration into a nonlinear regression curve (dose response-variable slope) to calculate GI50, inhibition rate={1−(A−B)/(C−B)}*100%, A=signal value of compound; B=average signal of blank control; C=average signal of negative control (wherein negative control was 0.1% DMSO).

[4] = Liver microsome stability test, mouse (MLM); details: mouse liver microsomes, NADPH
Procedure: The 10 mM test compound/ketanserin (Energy Chemical, Cat. No. E020711) stock solution was diluted with acetonitrile to 0.5 mM compound/reference compound. The frozen 100 mM NADPH (MCE, Cat. No. HYF003/CS-4998) was diluted with phosphate buffer solution to a concentration of 6 mM; 20 mg/mL HLM (BioIVT, Cat. No. X008067) or MLM (BioIVT, Cat. No. M00501) was diluted with phosphate buffer solution to a concentration of 0.75 mg/ml, and added to a 96-round well plate, respectively, and shaken evenly on an oscillator at 600 rpm. The above oscillated samples were pipetted 3 times with an electric pipettor and dispensed into a new 96-well plate (containing NADPH group (n=2), NADPH-free group was added at 0 and 45 min (n=1)), and there were a total of 5 groups of 0, 5, 15, 30 and 45 min, respectively. […] The reaction was terminated by quickly adding glacial acetonitrile internal standard using an electric pipettor; after vortexing at 900 rpm for 10 seconds, heat sealing was performed, oscillation was performed on an oscillator for 10 minutes, centrifugation was performed at 4000 rpm for 50 minutes, the supernatant was collected and diluted with pure water, and the test compound and the reference compound were quantified by LC-MS/MS analysis.

`CNC(=O)c1ccc(NCC#Cc2cc3c(NC4CC[C@@H](N5CC6(COC6)C5)C[C@@H]4F)cccn3c2CC(F)(F)F)c(OC)c1` (single isomer, unassigned) showed an IC50 ([1]; read-out: IC50 (μM) 0 min, 0 min pre-incubation) of 4 µM, an IC50 ([1]; read-out: IC50 (μM) 30 min, with NADPH, 30 min pre-incubation with NADPH) of 1.69 µM and an IC50 ([1]; read-out: IC50 (μM) 30 min, without NADPH, 30 min pre-incubation without NADPH) of 4.77 µM. The GI50 [2] was under 1 µM, the GI50 ([3]; 6 days, CTG) was under 1 µM and the “Compound GI50 (nM)/Reference compound GI50 (nM)” value ([3]; multiple ratio of GI50 of the compound to the reference compound) was “A (A: GI50 of the compound ≤ GI50 of the reference compound)”. The “T1/2 (min) Mouse” value [4] was 11.2 min.
